# Binding of CDR-mutated scFvs to a peptide of the spike HR2 region

Data: MIT Lincoln Laboratory AlphaSeq set, Engelhart et al. 2022, doi:10.1038/s41597-022-01779-4, as distributed in FLAb.

Target peptide (SARS-CoV-2 spike, HR2 region): PDVDLGDISGINAS

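The starting antibody came from a phage panning campaign against this peptide. AAYL51 was designed without a model: most single CDR substitutions and a random sample of double and triple ones. The assay is AlphaSeq: two haploid yeast populations carry antibody and antigen on their surface. After mating in shaken culture at 30 °C for 16 h, diploids were selected and their barcode pairs sequenced. The ratio of observed to expected reads was calibrated, replicate by replicate, on BCL2-family standards whose Kd was known from biolayer interferometry. There are three technical replicates.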

Ab-91 is the parent antibody, in scFv form: VL, then the linker GGGGSGGGGSGGGGS, then VH. The light chain is unchanged in all variants.
VL: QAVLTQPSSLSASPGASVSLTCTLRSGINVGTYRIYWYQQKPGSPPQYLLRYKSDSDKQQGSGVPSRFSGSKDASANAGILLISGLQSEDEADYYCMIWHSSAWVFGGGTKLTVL
VH: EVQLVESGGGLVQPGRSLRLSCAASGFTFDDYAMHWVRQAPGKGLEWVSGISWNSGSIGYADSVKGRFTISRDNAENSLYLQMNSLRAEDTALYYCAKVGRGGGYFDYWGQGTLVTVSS

Positions count from residue 1 of the parent VH; T28R puts R in place of T.
Affinities are written as log10 Kd with Kd in nM; a lower number is a better binder.
Where no diploid with the target was found in that replicate, the entry reads "nd": below detection, most likely a poor binder, though not proof of it.
Nonspecific signal, from three strains lacking the peptide, appeared in 21% of pairings of library AAYL51, centred on 4.54 (5% of these signals below 3.26); values are not corrected for it. The control count says in how many pairings with the empty strains this scFv gave a signal.
Parent in this assay: reference entry 1.86, copy in this library 0.88.

For T28R R101A G103C, the assay gave nd, nd, 4.33 (controls 3 of 9).
For T28Y G102D G104W, the assay gave 4.50, 4.13, 4.33 (controls 1 of 9).
For D31P W53L G103H, the assay gave nd, nd, nd (controls 0 of 9).
For D30C S52M Y105I, the assay gave 5.91, nd, nd (controls 2 of 9).
For F29Y W53D G100R, the assay gave nd, nd, nd (controls 0 of 9).
For F27Y H35I G102S, the assay gave nd, nd, nd (controls 3 of 9).
For D31R F106W, the assay gave 1.59, 1.48, 0.88 (controls 7 of 9).
For N54T K65L G100M, the assay gave nd, nd, nd (controls 1 of 9).
For I51S R101Q G103T, the assay gave 3.79, 4.36, 4.74 (controls 4 of 9).
For A33F N54Y D107H, the assay gave 5.80, nd, nd (controls 3 of 9).
For G59E G103R G104H, the assay gave 2.64, nd, 2.37 (controls 0 of 9).
For A61C Y105V, the assay gave nd, nd, nd (controls 1 of 9).
For S63L V99W G102C, the assay gave nd, nd, nd (controls 0 of 9).
For N54R G104D, the assay gave nd, nd, nd (controls 0 of 9).
For S55P K65I G100S, the assay gave nd, nd, nd (controls 2 of 9).
For F29Y I51H W53A, the assay gave nd, nd, nd (controls 0 of 9).
For S55R A61R Y108S, the assay gave 5.92, nd, 4.86 (controls 5 of 9).
For D31I S55N G59P, the assay gave nd, nd, nd (controls 0 of 9).
For F29C D30Y I58S, the assay gave 2.15, 2.21, 1.79 (controls 0 of 9).
For D62Y G103I G104H, the assay gave nd, nd, nd (controls 0 of 9).
For T28W Y32E, the assay gave 5.02, nd, nd (controls 1 of 9).
For A61T S63K V99G, the assay gave 2.37, 2.28, 2.08 (controls 1 of 9).
For T28V A33L I58F, the assay gave nd, nd, nd (controls 0 of 9).
For T28F S52N S55G, the assay gave 2.93, nd, nd (controls 2 of 9).
For Y32R D62H K65M, the assay gave nd, nd, nd (controls 2 of 9).
For D31A A61I R101N, the assay gave 4.14, nd, nd (controls 0 of 9).
For Y32H A61Y G102P, the assay gave 4.59, nd, nd (controls 4 of 9).
For D30N Y60W Y108G, the assay gave 3.03, 2.39, 2.85 (controls 2 of 9).
For A61F F106C, the assay gave 3.36, 3.77, 3.74 (controls 8 of 9).
For G59T Y105T F106Q, the assay gave 4.02, nd, nd (controls 6 of 9).
For D31S S63M G103K, the assay gave nd, nd, nd (controls 2 of 9).
For Y32I I58H G59Q, the assay gave nd, nd, nd (controls 0 of 9).
For Y32V G59A G102A, the assay gave nd, nd, nd (controls 1 of 9).
For F29Q I58W G102A, the assay gave nd, nd, nd (controls 0 of 9).
For Y32Q A33W H35C, the assay gave nd, nd, nd (controls 0 of 9).
For F29Y I51F F106C, the assay gave nd, nd, nd (controls 0 of 9).
For F27A S55P F106W, the assay gave 5.31, nd, nd (controls 1 of 9).
For G59E S63H Y108G, the assay gave nd, nd, nd (controls 0 of 9).
For D31E I58R R101L, the assay gave nd, nd, nd (controls 3 of 9).
For D30K M34A D107W, the assay gave 2.71, nd, nd (controls 3 of 9).
For Y32R S52G G56Y, the assay gave nd, 5.27, nd (controls 1 of 9).
For F29K S57A F106A, the assay gave nd, 5.73, nd (controls 0 of 9).
For T28L S57E V99F, the assay gave nd, nd, nd (controls 0 of 9).
For M34K Y60H G104S, the assay gave nd, nd, nd (controls 0 of 9).
For A33E W53R D107W, the assay gave 3.88, 6.25, 4.13 (controls 4 of 9).
For I51F K65N G100Y, the assay gave 4.10, 4.95, 4.07 (controls 5 of 9).
For N54L S63L G104H, the assay gave nd, nd, nd (controls 1 of 9).
For S52G G104I D107V, the assay gave 1.23, 1.32, 0.93 (controls 2 of 9).
For S55C V99Y G104L, the assay gave nd, nd, nd (controls 0 of 9).
For D30I A33M W53Y, the assay gave 4.26, nd, 4.13 (controls 6 of 9).
For Y32N W53M V64Y, the assay gave nd, 5.48, 5.48 (controls 4 of 9).
For T28F D31R V64G, the assay gave 6.14, nd, 4.33 (controls 4 of 9).

Extract of 4 entries:

The variant T28W Y32E showed 5.02, nd, nd (controls 1 of 9).
The variant G59E S63H Y108G showed nd, nd, nd (controls 0 of 9).
The variant N54R G104D showed nd, nd, nd (controls 0 of 9).
The variant S52G G104I D107V showed 1.23, 1.32, 0.93 (controls 2 of 9).